PMC7279249, “Synthesis of Fmoc-Triazine Amino Acids and Its Application in the Synthesis of Short Antibacterial Peptidomimetics” (International Journal of Molecular Sciences, 2020)

Tests used:
[1] = test system: Staphylococcus aureus (KCTC 1621); details: Gram-positive; serial 2-fold dilutions in 1% peptone, 1 to […]; 18 h incubation; lowest concentration causing 100% inhibition of growth (no visible turbidity)
Protocol: (§1) The bacterial cells were grown overnight for 18 h at 37 °C in 10 mL of Mueller Hinton broth (MHB). The 10 μL of this culture was inoculated into 10 mL of fresh MHB and incubated for an additional 3 h at 37 °C to obtain mid-logarithmic phase organisms. Aliquots (100 μL) of bacterial cell suspension at 4 × 10^6 CFU/mL in 1% peptone were added to 100 μL of the sample solutions (serial 2-fold dilutions in 1% peptone). […] The MIC values were determined after 18 h of incubation.

[2] = test system: Staphylococcus epidermidis (KCTC 1917); details: Gram-positive; serial 2-fold dilutions in 1% peptone, 1 to […]; 18 h incubation; lowest concentration causing 100% inhibition of growth (no visible turbidity)
Protocol: as §1

[3] = test system: P. aeruginosa (KCTC 1637); details: Gram-negative; serial 2-fold dilutions in 1% peptone, 1 to […]; 18 h incubation; lowest concentration causing 100% inhibition of growth (no visible turbidity)
Protocol: as §1

E. coli (KCTC 1682) = details: Gram-negative; serial 2-fold dilutions in 1% peptone, 1 to […]; 18 h incubation; lowest concentration causing 100% inhibition of growth (no visible turbidity)
Protocol: as §1

CC[C@H](C)[C@H](NC(=O)CN)C(=O)NCC(=O)N[C@@H](C)C(=O)N[C@H](C(=O)N[C@@H](CC(C)C)C(=O)N[C@@H](CCCCN)C(=O)N[C@H](C(=O)N[C@@H](CC(C)C)C(=O)N[C@H](C(=O)N[C@H](C(=O)NCC(=O)N[C@@H](CC(C)C)C(=O)N1CCC[C@H]1C(=O)N[C@@H](C)C(=O)N[C@@H](CC(C)C)C(=O)N[C@H](C(=O)N[C@@H](CO)C(=O)N[C@@H](Cc1c[nH]c2ccccc12)C(=O)N[C@H](C(=O)N[C@@H](CCCCN)C(=O)N[C@@H](CCCNC(=N)N)C(=O)N[C@@H](CCCCN)C(=O)N[C@@H](CCCNC(=N)N)C(=O)N[C@@H](CCC(N)=O)C(=O)N[C@@H](CCC(N)=O)C(N)=O)[C@@H](C)CC)[C@@H](C)CC)[C@@H](C)O)[C@@H](C)O)C(C)C)C(C)C [melittin, reference compound]
16 mg/L: MIC, Staphylococcus aureus (KCTC 1621) [1] | MIC, Staphylococcus epidermidis (KCTC 1917) [2] | MIC, P. aeruginosa (KCTC 1637) [3] | MIC, E. coli (KCTC 1682) (E. coli (KCTC 1682))
